Assay results as given in ChEMBL document CHEMBL5120909, “Reshaping an Acyclic Nucleoside Phosphonate into a Selective Anti-hepatitis B Virus Compound” (J Med Chem, 2022).

Assay: Selectivity index, ratio of CC50 for cytotoxicity against human HFF cells infected with HCMV AD-169 virus assessed as reduction in cell viability by cell titer-glo assay to EC50 for antiviral activity against HCMV AD-169 infected in HFF cells assessed as inhibition of virus-induced cytopathic effect measured after 14 days
Assay type: toxicity, cell-based
Details: read-out: Ratio CC50/EC50

Question: Which selectivity ratio at 336 h does the source give for `Nc1nc(O)c2ncn(COC(CO)CO)c2n1` [GANCICLOVIR] here?
Answer: > 175
